These results are taken from ChEMBL document CHEMBL1154733, “Synthesis and in vitro opioid receptor functional antagonism of methyl-substituted analogues of (3R)-7-hydroxy-N-[(1S)-1-{[(3R,4R)-4-(3-hydroxyphenyl)-3,4-dimethyl-1-piperidinyl]methyl}-2-methylpropyl]-1,2,3,4-tetrahydro-3-isoquinolinecarboxamide (JDTic)” (J Med Chem, 2009).

The chains behind the UniProt entries cited, without tags or fusion partners.
UniProt P35372, whole entry: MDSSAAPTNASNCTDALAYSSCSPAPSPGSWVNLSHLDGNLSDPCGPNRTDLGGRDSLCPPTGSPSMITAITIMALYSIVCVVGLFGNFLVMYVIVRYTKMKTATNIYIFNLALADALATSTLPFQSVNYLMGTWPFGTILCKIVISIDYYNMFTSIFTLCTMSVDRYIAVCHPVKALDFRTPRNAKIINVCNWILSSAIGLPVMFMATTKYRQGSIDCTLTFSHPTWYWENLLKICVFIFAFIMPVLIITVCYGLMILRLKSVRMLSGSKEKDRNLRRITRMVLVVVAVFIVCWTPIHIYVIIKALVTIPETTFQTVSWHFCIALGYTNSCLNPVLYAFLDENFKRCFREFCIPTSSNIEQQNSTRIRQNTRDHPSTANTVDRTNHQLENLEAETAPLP
UniProt P41143, whole entry: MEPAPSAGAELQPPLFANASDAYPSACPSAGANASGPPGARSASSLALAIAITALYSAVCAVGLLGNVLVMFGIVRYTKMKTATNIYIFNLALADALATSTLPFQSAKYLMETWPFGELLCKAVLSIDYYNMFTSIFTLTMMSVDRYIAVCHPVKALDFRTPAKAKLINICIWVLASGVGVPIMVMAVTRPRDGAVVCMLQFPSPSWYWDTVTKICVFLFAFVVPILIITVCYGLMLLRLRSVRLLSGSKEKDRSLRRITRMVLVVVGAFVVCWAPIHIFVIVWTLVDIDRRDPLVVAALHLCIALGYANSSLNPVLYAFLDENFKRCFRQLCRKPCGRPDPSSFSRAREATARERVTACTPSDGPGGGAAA

Assay [1] has as its target Mu-type opioid receptor (Homo sapiens) (UniProt P35372). Nature of the assay: Antagonist activity at human cloned mu opioid receptor expressed in CHO cells assessed as inhibition of DAMGO-stimulated [35S]GTPgammaS binding. The class given is functional, cell-based. A general note: GTPγS is a poorly hydrolysed GTP analogue; its binding reports G protein activation.
The target in assay [2] is Delta-type opioid receptor (Homo sapiens) (UniProt P41143). Put plainly: Antagonist activity at human cloned delta opioid receptor expressed in CHO cells assessed as inhibition of DPDPE-stimulated [35S]GTPgammaS binding. Type of assay: functional, cell-based.

As for `COc1cccc([C@]2(C)CCN(C[C@@H](NC(=O)[C@@]3(C)Cc4ccc(O)cc4CN3)C(C)C)C[C@@H]2C)c1`, in assay [1], the Ke came out at 123 nM.

For the molecule `COc1cccc([C@]2(C)CCN(C[C@@H](NC(=O)[C@@]3(C)Cc4ccc(OC)cc4CN3)C(C)C)C[C@@H]2C)c1`, in assay [1], the Ke was 1450 nM.

Regarding `CC[C@H](C)[C@@H](CN1CC[C@@](C)(c2cccc(OC)c2)[C@@H](C)C1)NC(=O)[C@@]1(C)Cc2ccc(O)cc2CN1`, the Ke in assay [1] stood at 59.1 nM.

On to `COc1ccc2c(c1)CN(C)[C@@](C)(C(=O)N[C@H](CN1CC[C@@](C)(c3cccc(O)c3)[C@@H](C)C1)C(C)C)C2`, for which, in assay [2], the Ke is 117 nM.

As to `CC[C@H](C)[C@@H](CN1CC[C@@](C)(c2cccc(OC)c2)[C@@H](C)C1)NC(=O)[C@H]1Cc2ccc(O)cc2CN1`, the Ke in assay [2] was found to be 1170 nM.

For `CC[C@H](C)[C@@H](CN1CC[C@@](C)(c2cccc(O)c2)[C@@H](C)C1)NC(=O)[C@@]1(C)Cc2ccc(O)cc2CN1`, in assay [2], the Ke came to 149 nM.
